The source of these data is US20100081624A1, “SELECTIVE PEPTIDES THAT INHIBIT THE BIOLOGICAL ACTIVITY OF CALCINEURIN” (Consejo Superior de Investigaciones Cientficas, priority 2005, published 2010).

This test addresses Calcineurin (CN), heterodimer of catalytic sub-unit CnA and regulatory sub-unit CnB (Sigma). Put plainly: dose-dependent competition of GST-NFATc2 pull-down of CN, densitometry (FIG. 5).

Regarding “LxVPc1 peptide (synthetic peptide with the LxVP sequence of NFATc1)”, the concentration that totally blocked the binding came to 50 µM.
